The target of this assay is Recombinant human glucose-regulated protein GRP78 (human) (UniProt P11021). The assay can be described thus: SPR (Biacore T200), recombinant human GRP78 coupled to a CM5 chip, peptide injected at 0.3125-20 µM. Background: Surface plasmon resonance follows binding to a sensor surface in real time, without labels.

Chains of the proteins cited; added tags and fusions are not shown. Residues count along the entry.
UniProt P11021, 19-654 limits assumed: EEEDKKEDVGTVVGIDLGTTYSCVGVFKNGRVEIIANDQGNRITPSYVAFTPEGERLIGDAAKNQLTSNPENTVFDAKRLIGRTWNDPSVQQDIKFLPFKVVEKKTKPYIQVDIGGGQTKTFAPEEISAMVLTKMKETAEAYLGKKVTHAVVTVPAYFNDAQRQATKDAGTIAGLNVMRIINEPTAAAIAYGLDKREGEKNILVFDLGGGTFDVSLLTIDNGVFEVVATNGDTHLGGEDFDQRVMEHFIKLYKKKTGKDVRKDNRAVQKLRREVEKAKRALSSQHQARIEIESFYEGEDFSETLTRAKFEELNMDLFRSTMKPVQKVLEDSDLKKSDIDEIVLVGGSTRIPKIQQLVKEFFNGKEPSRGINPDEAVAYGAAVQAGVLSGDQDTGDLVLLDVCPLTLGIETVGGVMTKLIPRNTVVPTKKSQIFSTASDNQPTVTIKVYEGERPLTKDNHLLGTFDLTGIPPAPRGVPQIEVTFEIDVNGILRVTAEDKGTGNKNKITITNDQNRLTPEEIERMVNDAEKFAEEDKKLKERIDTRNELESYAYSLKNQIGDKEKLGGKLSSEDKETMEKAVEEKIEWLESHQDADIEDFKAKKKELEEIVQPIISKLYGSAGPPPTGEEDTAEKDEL

For the molecule PAVRTNS (all seven residues are D-configuration amino acids (^DP^DA^DV^DR^DT^DN^DS)) [DVAP (D-configuration peptide DP-DA-DV-DR-DT-DN-DS)], the dissociation constant Kd (commonly the free concentration of one partner at which half of the binding sites on the other are occupied at equilibrium, for simple one-to-one binding) was 4.01 µM.

The record behind these values is patent US11622990.
